Chains of the proteins cited; added tags and fusions are not shown. Lines headed by an entry give the natural chain unless they say otherwise; changes in a name come on top.
UniProt P24723, whole entry: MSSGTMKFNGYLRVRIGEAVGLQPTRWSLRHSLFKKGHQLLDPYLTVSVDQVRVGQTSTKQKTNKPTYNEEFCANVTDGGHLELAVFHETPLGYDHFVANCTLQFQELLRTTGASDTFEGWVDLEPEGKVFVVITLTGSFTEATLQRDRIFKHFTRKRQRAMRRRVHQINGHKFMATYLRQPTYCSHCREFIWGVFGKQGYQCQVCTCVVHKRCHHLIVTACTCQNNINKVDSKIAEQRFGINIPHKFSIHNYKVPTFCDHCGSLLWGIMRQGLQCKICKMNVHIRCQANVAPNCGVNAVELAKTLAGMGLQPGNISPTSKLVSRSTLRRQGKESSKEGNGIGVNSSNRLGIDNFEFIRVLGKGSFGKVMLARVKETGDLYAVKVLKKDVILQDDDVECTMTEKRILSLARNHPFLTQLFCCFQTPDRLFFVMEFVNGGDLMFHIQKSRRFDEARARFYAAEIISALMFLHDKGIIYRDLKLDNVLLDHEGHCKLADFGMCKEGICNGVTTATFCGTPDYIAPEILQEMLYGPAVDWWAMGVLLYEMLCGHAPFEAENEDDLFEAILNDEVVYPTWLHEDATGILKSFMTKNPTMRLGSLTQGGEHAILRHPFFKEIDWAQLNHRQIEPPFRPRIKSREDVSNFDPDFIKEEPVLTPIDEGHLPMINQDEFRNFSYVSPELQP
UniProt Q05655, whole entry: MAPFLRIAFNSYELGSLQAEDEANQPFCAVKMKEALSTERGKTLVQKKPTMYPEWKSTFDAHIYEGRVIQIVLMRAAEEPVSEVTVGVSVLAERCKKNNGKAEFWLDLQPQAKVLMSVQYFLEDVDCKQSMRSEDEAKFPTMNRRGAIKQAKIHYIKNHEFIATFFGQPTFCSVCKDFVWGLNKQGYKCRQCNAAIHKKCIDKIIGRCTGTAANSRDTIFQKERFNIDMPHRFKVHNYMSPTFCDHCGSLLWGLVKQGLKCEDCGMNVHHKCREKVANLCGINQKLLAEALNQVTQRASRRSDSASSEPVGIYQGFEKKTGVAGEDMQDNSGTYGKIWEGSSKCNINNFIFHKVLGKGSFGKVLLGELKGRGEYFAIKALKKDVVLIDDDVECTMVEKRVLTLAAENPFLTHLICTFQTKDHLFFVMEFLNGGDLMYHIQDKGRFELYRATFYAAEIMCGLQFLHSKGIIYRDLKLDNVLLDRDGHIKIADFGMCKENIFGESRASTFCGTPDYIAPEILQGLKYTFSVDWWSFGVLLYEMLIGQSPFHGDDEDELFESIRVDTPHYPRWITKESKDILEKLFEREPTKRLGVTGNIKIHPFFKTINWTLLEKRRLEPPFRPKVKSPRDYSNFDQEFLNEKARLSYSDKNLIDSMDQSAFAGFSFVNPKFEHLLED
UniProt Q04759, whole entry: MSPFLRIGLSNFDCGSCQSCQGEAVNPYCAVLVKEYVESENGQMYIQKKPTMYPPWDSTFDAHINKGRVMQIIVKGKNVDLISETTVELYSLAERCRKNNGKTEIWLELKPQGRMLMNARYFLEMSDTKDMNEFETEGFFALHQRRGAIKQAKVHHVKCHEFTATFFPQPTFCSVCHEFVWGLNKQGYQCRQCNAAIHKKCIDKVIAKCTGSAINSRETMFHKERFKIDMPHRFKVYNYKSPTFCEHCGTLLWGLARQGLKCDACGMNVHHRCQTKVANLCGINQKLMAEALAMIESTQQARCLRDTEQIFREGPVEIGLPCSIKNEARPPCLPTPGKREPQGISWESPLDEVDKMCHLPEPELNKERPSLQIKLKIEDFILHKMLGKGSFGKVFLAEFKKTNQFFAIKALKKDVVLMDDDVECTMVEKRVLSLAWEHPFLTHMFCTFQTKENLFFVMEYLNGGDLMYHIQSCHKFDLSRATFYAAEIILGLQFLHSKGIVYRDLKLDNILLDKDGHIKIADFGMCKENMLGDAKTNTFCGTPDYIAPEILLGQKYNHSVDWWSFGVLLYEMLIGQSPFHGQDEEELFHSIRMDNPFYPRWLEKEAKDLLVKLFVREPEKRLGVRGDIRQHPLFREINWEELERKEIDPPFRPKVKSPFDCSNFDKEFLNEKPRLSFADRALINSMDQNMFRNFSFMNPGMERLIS
UniProt P05771, whole entry: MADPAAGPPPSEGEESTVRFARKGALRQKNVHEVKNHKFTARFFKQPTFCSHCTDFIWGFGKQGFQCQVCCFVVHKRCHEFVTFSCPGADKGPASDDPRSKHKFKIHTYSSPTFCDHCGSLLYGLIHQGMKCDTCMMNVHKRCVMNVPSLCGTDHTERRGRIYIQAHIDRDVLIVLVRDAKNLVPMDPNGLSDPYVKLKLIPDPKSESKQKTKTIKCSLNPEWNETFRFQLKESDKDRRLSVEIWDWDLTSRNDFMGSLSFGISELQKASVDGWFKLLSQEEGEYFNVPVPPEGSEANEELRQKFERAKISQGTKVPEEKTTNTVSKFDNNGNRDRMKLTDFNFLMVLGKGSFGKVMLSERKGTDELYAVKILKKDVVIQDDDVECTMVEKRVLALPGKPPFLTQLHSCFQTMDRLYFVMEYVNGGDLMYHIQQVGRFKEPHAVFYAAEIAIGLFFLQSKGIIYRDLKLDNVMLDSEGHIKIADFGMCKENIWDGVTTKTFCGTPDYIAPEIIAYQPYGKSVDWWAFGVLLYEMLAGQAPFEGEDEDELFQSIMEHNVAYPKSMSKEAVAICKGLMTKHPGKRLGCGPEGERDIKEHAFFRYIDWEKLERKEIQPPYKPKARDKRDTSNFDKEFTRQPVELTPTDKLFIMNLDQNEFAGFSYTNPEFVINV

According to patent US7534808B2, “Indolylmaleimide derivatives” (priority 2002, dated 2009):

Assays:
[1] = tested on: Jurkat cells transfected with a human interleukin-2 promoter/reporter gene construct; assay: CD28 Costimulation Assay; conditions: luciferase reporter, stimulated Jurkat cells
Method: The assay is performed with Jurkat cells transfected with a human interleukin-2 promoter/reporter gene construct as described by Baumann G et al. in Transplant.Proc. 1992; 24:43-8, the β-galactosidase reporter gene being replaced by the luciferase gene (de Wet J., et al., Mol. Cell Biol. 1987, 7(2), 725-737). Cells are stimulated by solid phase-coupled antibodies or phorbol myristate acetate (PMA) and the Ca^++ ionophore ionomycin as follows. For antibody-mediated stimulation Microlite TM1 microtiter plates (Dynatech) are coated with 3 μg/ml goat anti-mouse IgG Fc antibodies (Jackson) in 55 μl phosphate-buffered saline (PBS) per well for three hours at RT. Plates are blocked after removing the antibodies by incubation with 2% bovine serum albumin (BSA) in PBS (300 μl per well) for 2 hours at RT. […] After incubation for 5.5 hours at 37° C. in 5% CO2, the level of luciferase is determined by bioluminescence measurement. […] Luciferase activity is assessed with a bioluminescence reader (Labsystem, Helsinki, Finland) after automatic addition of 50 μl per well luciferase reaction buffer containing 20 mM Tricine, 1.07 mM (MgCO3)4Mg(OH)2×5H2O, 2.67 mM MgSO4, 0.1 mM EDTA, 33.3 mM DTT, 270 μM coenzyme A, 470 μM luciferin (Chemie Brunschwig AG), 530 μM ATP, pH 7.8. […] The inhibition obtained in the presence of a test compound is calculated as percent inhibition of the high control. […]

[2] = tested on: spleen cells from CBA and BALB/c mice; assay: Allogeneic Mixed Lymphocyte Reaction (MLR), two-way; conditions: mouse two-way MLR, 3H-thymidine incorporation
Method: The two-way MLR is performed according to standard procedures (J. Immunol. Methods, 1973, 2, 279 and Meo T. et al., Immunological Methods, New York, Academic Press, 1979, 227-39). Briefly, spleen cells from CBA and BALB/c mice (1.6×10^5 cells from each strain per well in flat bottom tissue culture microtiter plates, 3.2×10^5 in total) are incubated in RPMI medium containing 10% FCS, 100 U/ml penicillin, 100 μg/ml streptomycin (Gibco BRL, Basel, Switzerland), 50 μM 2-mercaptoethanol (Fluka, Buchs, Switzerland) and serially diluted compounds. Seven three-fold dilution steps in duplicates per test compound are performed. After four days of incubation 1 μCi ^3H-thymidine is added. Cells are harvested after an additional five-hour incubation period, and incorporated ^3H-thymidine is determined according to standard procedures. Background values (low control) of the MLR are the proliferation of BALB/c cells alone. Low controls are subtracted from all values. High controls without any sample are taken as 100% proliferation. Percent inhibition by the samples is calculated, and the concentrations required for 50% inhibition (IC50 values) are determined. In this assay, Compound of Example 29 has an IC50 of 28 nM.

[3] = tested on: (Wistar/F×Fischer 344)F1 hybrid rats; assay: Graft v. Host Model; conditions: 30 mg/kg/day bid, days 0-3, lymph nodes removed day 7
Method: Spleen cells (2×10^7) from Wistar/F rats are injected subcutaneously into the right hind footpad of (Wistar/F×Fischer 344)F1 hybrid rats. The left footpad is left untreated. The animals are treated with the test compounds on 4 consecutive days (0-3). The popliteal lymph nodes are removed on day 7, and the weight differences between two corresponding lymph nodes are determined. The results are expressed as the inhibition of lymph node enlargement (given in percent) comparing the lymph node weight differences in the experimental groups to the weight difference between the corresponding lymph nodes from a group of animals left untreated with a test compound. In this assay, an inhibition of 100% is obtained with compound of Example 29 when administered at a dose of 30 mg/kg/day bid.

[4] = target: Human recombinant PKCη (Homo sapiens, UniProt P24723); assay: Protein Kinase Cη Assay
Method: (§1) The compounds of formula I are tested for their activity on different PKC isoforms according to a published method (D. Geiges et al. Biochem. Pharmacol. 1997; 53:865-875) The assay is performed in a 96-well polypropylene microtiterplate (Costar 3794) that has been previously siliconized with Sigmacote (Sigma SL-2). The reaction mixture (50 μl) contains 10 μl of the relevant PKC isozyme together with 25 μl of the test compound and 15 μl of a mix solution that contains 200 μg/ml protamine sulfate, 10 mM Mg(NO3)2, 10 μM ATP (Boehringer 519987) and 3750 Bq of ^33P-ATP (Hartmann Analytic SFC301, 110TBq/mmol) in 20 mM Tris-buffer pH 7.4+0.1% BSA. Incubation is performed for 15 min at 32° C. in a microtiterplate shaking incubator (Biolabo Scientific Instruments). Reaction is stopped by adding 10 μl of 0.5 M Na2EDTA, pH 7.4. 50 μl of mixture are pipetted onto a pre-wetted phosphocellulose paper (Whatmann 3698-915) under gentle pressure. Non-incorporated ATP is washed away with 100 μl bi-dist H2O. The paper is washed twice in 0.5% H3PO4 for 15 min followed by 5 min in EtOH. Thereafter the paper is dryed and placed in an omnifilter (Packard 6005219), and overlayed with 10 μl/well of Microscint-O (Packard 6013611) before counting in a Topcount radioactivity counter (Packard). […] IC50 values are calculated from the graph by sigmoidal curve fitting. […]

[5] = target: Human recombinant PKCδ (Homo sapiens, UniProt Q05655); assay: Protein Kinase Cδ Assay
Method: as §1

[6] = target: Human recombinant PKCα (Homo sapiens, UniProt P17252); assay: Protein Kinase Cα Assay
Method: as §1

[7] = target: Human recombinant PKCθ (Homo sapiens, UniProt Q04759); assay: Protein Kinase C θ Assay
Method: as §1

[8] = target: Human recombinant PKCβ1 (Homo sapiens, UniProt P05771); assay: Protein Kinase Cβ1 Assay
Method: as §1

SMILES | IC50 [1] [nM] | IC50 [2] [nM] | inhibition of lymph node enlargement [3] [%] | IC50 [4] [nM] | IC50 [5] [nM] | IC50 [6] [nM] | IC50 [7] [nM] | IC50 [8] [nM]
Cc1c(Cl)nc(N2CCN(C)CC2)nc1C1=C(c2c[nH]c3ccccc23)C(=O)NC1=O | 20 | 28 | 100 | 27.4 | 20 | 4.3 | – | –
CN1CCN(c2nc(C3=C(c4c[nH]c5ccccc45)C(=O)NC3=O)cc(C(F)(F)F)n2)CC1 | – | – | – | – | – | – | 6.8 | 19.6
